The target of the assay is T1, human 5-HT2C receptor (Homo sapiens, UniProt P28335).
T1 construct: expressed in transfected cells
Kind of assay: Calcium mobilization in response to 5-HT2C receptor agonists (FLIPR). The following applies: CHO cells stably expressing human 5-HT2C receptor, Fluo-3 calcium; read-out: EC50, reference compounds. The format is cell-based. A general note: Calcium flux is commonly read through the fluorescence of an indicator in the cells.

The chains behind the UniProt entries cited, without tags or fusion partners. Residues count along the entry.
UniProt P28335, 33-458: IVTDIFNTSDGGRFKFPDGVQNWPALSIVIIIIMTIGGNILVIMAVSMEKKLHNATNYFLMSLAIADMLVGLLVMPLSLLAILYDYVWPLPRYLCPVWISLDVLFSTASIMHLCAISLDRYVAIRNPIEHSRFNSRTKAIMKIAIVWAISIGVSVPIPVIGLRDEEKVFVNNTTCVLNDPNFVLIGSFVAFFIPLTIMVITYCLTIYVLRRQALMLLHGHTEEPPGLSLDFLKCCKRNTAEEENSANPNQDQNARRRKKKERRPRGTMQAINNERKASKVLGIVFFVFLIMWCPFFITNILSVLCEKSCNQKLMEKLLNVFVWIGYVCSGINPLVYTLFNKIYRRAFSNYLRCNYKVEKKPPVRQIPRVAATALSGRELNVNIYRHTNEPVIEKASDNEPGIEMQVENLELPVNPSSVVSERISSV

Among the data in patent publication US7071185B2, “1,2,3,4,7,8-hexahydro-6H-[1,4]diazepino[6,7,1-ij]quinoline derivatives as antipsychotic and antiobesity agents” (Wyeth, priority 2002, dated 2006) are EC50 values, retold here.

Take “1-(2,5-dimethoxy-4-iodophenyl)isopropylamine [DOI, reference compound]”: the EC50 (commonly the concentration at which the effect is half-maximal) is 0.5 nM.
